Experimental data: patent publication US9061077B2 (Emory University, priority 2008, dated 2015)

Test: Percent dose in urine in healthy volunteers
Conditions: normal volunteers

Substance: technetium-99m tricarbonyl-nitrilotriacetic acid
- Urine 30 min 99mTc/131I: 105%
